Experimental findings from PubChem BioAssay AID588405 (Sanford-Burnham Center for Chemical Genomics, 2011) are described below.

Only a part is listed here, and it is no random draw. Active and inactive are the calls of the source.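 The calls were made as follows: active = inhibition of at least 50% at 20 µM; inactive = the rest.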

This assay in a line: inhibition of PEG-3 promoter activity – cell-based, HeLa, luciferase luminescence, primary screen (AID 588405). Conditions: HeLa PEG-Prom luciferase reporter, overnight, at 20 µM, stronger effect = higher value. (In general: A reporter such as luciferase makes a cellular process visible.)
In the case of `CCOP(C)(=S)SCC(=O)NC(C)(CC)C(=O)O` (stereo unspecified), the inhibition – broadly, the percentage by which the read-out fell short of the control – was inactive: 3.23%.
